## Experimental melting point values from OPERA 2.9

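OPERA's authors assembled the values from existing databases and did not measure them anew. One number stands for a compound and property, with no spread given. How each value was measured is not recorded, so precision varies. A value may pool stereoisomers or salt forms, and the file does not say which form was measured. Some entries may be limits or estimates that an upstream database listed as plain numbers.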

The melting point is given in degrees Celsius.

{"smiles": "O=C(O)c1cncc2ccccc12", "name": "Isoquinoline-4-carboxylic acid", "MP (°C)": "250"}
{"smiles": "Cc1[nH]c2ccccc2c1-c1csc(N)n1", "name": "4-(2-Methyl-1H-indol-3-yl)-thiazol-2-ylamine", "MP (°C)": "169"}
{"smiles": "O=C(O)c1ccc(NS(=O)(=O)c2ccc(Br)cc2)cc1", "name": "4-[(4-Bromobenzene-1-sulfonyl)amino]benzoic acid", "MP (°C)": "268"}
{"smiles": "Cc1cc2ccccc2n1CC(=O)O", "name": "(2-Methyl-1H-indol-1-yl)acetic acid", "MP (°C)": "185"}
{"smiles": "Cc1cccc(OC(C)C(=O)O)c1", "stereo": "configuration not stated", "name": "2-(3-Methylphenoxy)propanoic acid", "MP (°C)": "86"}
{"smiles": "O=C(O)c1csc(-c2ccc(F)cc2)n1", "name": "2-(4-Fluorophenyl)-1,3-thiazole-4-carboxylic acid", "MP (°C)": "197"}
{"smiles": "O=C(O)C=Cc1ccccc1OC(F)F", "name": "3-(2-Difluoromethoxy-phenyl)-acrylic acid", "MP (°C)": "165"}
{"smiles": "O=C(O)c1ccccc1NCCO", "name": "Benzoic acid, 2-((2-hydroxyethyl)amino)-", "MP (°C)": "143"}
{"smiles": "BrCCC(c1ccccc1)c1ccccc1", "name": "1,1'-(3-Bromopropylidene)bisbenzene", "MP (°C)": "40.5"}
{"smiles": "COc1ccc(COCC(=O)O)cc1", "name": "[(4-Methoxyphenyl)methoxy]acetic acid", "MP (°C)": "42"}
{"smiles": "Cc1cc(C)n(-c2ccc(S(N)(=O)=O)cc2)n1", "name": "4-(3,5-Dimethyl-1H-pyrazol-1-yl)benzene-1-sulfonamide", "MP (°C)": "244"}
{"smiles": "Cc1cc(C)c2c(N)c(C(=O)O)sc2n1", "name": "3-Amino-4,6-dimethylthieno[2,3-b]pyridine-2-carboxylic acid", "MP (°C)": "146"}
{"smiles": "O=C(O)c1ccc(S(=O)(=O)Nc2ccccc2)cc1", "name": "4-(Phenylsulfamoyl)benzoic acid", "MP (°C)": "226"}
{"smiles": "CC(C)(Oc1ccc(F)cc1)C(=O)O", "name": "Fluorofibric acid", "MP (°C)": "69"}
{"smiles": "O=C(O)c1cc(S(=O)(=O)N2CCCCC2)ccc1Cl", "name": "2-Chloro-5-(piperidine-1-sulfonyl)-benzoic acid", "MP (°C)": "215"}
{"smiles": "CS(=O)(=O)OC[C@H](O)[C@@H](O)COS(C)(=O)=O", "name": "Treosulfan", "MP (°C)": "102.2"}
{"smiles": "Cc1nc2ccccn2c1C(=O)NN", "name": "2-methylimidazo[1,2-a]pyridine-3-carbohydrazide", "MP (°C)": "189"}
{"smiles": "C=C(C)CNC(=S)NN", "name": "N-(2-Methylprop-2-en-1-yl)hydrazinecarbothioamide", "MP (°C)": "87"}
{"smiles": "O=C(O)c1cc([N+](=O)[O-])ccc1N1CCCCC1", "name": "5-Nitro-2-piperidin-1-yl-benzoic acid", "MP (°C)": "195"}
{"smiles": "CNc1ccc([N+](=O)[O-])cc1C(=O)O", "name": "2-(methylamino)-5-nitrobenzoic acid", "MP (°C)": "262"}
{"smiles": "O=C(O)C1CC(=O)N(C2CCCC2)C1", "stereo": "configuration not stated", "name": "1-cyclopentyl-5-oxopyrrolidine-3-carboxylic acid", "MP (°C)": "137"}
{"smiles": "Cc1ccc(-n2c(C)cc(CC(=O)O)c2C)cc1", "name": "1H-Pyrrole-3-acetic acid, 2,5-dimethyl-1-(4-methylphenyl)-", "MP (°C)": "51"}
{"smiles": "CC(=O)Nc1ccc2nn(C3CCCC3)nc2c1", "name": "N-(2-Cyclopentyl-2H-benzotriazol-5-yl)acetamide", "MP (°C)": "94"}
{"smiles": "Cc1ccc(N2C(=O)C=CC2=O)cc1", "name": "Maleimide, N-p-tolyl-", "MP (°C)": "152"}
{"smiles": "Cc1ccc(C)n1-c1ccc(N)cc1", "name": "4-(2,5-dimethyl-1H-pyrrol-1-yl)aniline", "MP (°C)": "94"}
{"smiles": "NC(=O)C(F)(F)c1ccccc1", "name": "2,2-difluoro-2-phenylacetamide", "MP (°C)": "117"}
{"smiles": "F[B-](F)(F)C(F)(F)C(F)(F)F.[K+]", "name": "Potassium trifluoro(pentafluoroethyl)borate(1-)", "MP (°C)": "254.5"}
{"smiles": "CC1(c2cccs2)NC(=O)NC1=O", "stereo": "configuration not stated", "name": "5-methyl-5-thien-2-ylimidazolidine-2,4-dione", "MP (°C)": "138"}
{"smiles": "O=[N+]([O-])c1cc([N+](=O)[O-])c(Nc2ncc(C(F)(F)F)cc2Cl)c(C(F)(F)F)c1", "MP (°C)": "90"}
{"smiles": "COC(=O)c1cc(C)nc(SC)n1", "name": "methyl 6-methyl-2-(methylthio)pyrimidine-4-carboxylate", "MP (°C)": "117"}
{"smiles": "CCOC(=O)C1CCCNC1=O", "stereo": "configuration not stated", "name": "3-Carbethoxy-2-piperidone", "MP (°C)": "81"}
{"smiles": "O=C(O)CN[C@@H]1CCS(=O)(=O)C1", "name": "N-(1,1-Dioxo-1lambda~6~-thiolan-3-yl)glycine", "MP (°C)": "242"}
{"smiles": "C=CC(=O)NCOC", "name": "2-Propenamide, N-(methoxymethyl)-", "MP (°C)": "-7"}
{"smiles": "O=C(O)C1=COCCO1", "name": "5,6-Dihydro-[1,4]dioxine-2-carboxylic acid", "MP (°C)": "165"}
{"smiles": "CCN(CC)CCOC(c1ccccc1)c1ccccc1.Cl", "name": "Ethylbenzhydramine hydrochloride", "MP (°C)": "140"}
{"smiles": "CC(C)(C)c1ccc(CCC(=O)O)cc1", "name": "3-(4-tert-Butyl-phenyl)-propionic acid", "MP (°C)": "106"}

A selection of 5 entries from above:

{"smiles": "Cc1ccc(C)n1-c1ccc(N)cc1", "name": "4-(2,5-dimethyl-1H-pyrrol-1-yl)aniline", "MP (°C)": "94"}
{"smiles": "Cc1nc2ccccn2c1C(=O)NN", "name": "2-methylimidazo[1,2-a]pyridine-3-carbohydrazide", "MP (°C)": "189"}
{"smiles": "Cc1cc(C)n(-c2ccc(S(N)(=O)=O)cc2)n1", "name": "4-(3,5-Dimethyl-1H-pyrazol-1-yl)benzene-1-sulfonamide", "MP (°C)": "244"}
{"smiles": "CC1(c2cccs2)NC(=O)NC1=O", "stereo": "configuration not stated", "name": "5-methyl-5-thien-2-ylimidazolidine-2,4-dione", "MP (°C)": "138"}
{"smiles": "O=C(O)c1ccc(NS(=O)(=O)c2ccc(Br)cc2)cc1", "name": "4-[(4-Bromobenzene-1-sulfonyl)amino]benzoic acid", "MP (°C)": "268"}

From the experimental data distributed with OPERA 2.9.